Experimental data published in patent publication US20090253669A1, “Substituted Sulfonamide Compounds” (GRUENENTHAL GmbH, priority 2008, published 2009).

Amino acid sequences for entries named in this document (tags omitted).
UniProt P35372, whole entry, looked up: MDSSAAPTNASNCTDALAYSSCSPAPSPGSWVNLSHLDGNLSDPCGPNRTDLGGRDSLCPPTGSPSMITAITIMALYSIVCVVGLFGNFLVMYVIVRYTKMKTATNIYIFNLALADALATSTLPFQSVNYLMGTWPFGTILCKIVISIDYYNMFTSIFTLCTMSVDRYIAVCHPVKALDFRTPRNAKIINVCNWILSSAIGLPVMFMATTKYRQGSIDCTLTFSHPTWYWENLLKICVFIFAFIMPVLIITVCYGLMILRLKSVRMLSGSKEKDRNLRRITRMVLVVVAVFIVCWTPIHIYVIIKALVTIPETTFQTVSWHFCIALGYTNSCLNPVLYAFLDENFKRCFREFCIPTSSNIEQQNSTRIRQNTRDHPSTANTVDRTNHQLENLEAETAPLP

The molecules below were run against human μ opiate receptor (Homo sapiens, UniProt P35372) (assay: [3H]-naloxone displacement, SPA, membranes of CHO-K1 cells). Settings: 1 μM test substance; inhibition of specific binding of 1 nmol/l [3H]-naloxone.

Compared with `COc1cc(C)c(S(=O)(=O)N2CCCCC2COCC(=O)N(C)CCC2CCC(Cc3ccccc3)(N3CCCC3)CC2)c(C)c1` (stereo not shown) [Compound 68, N-(2-(4-benzyl-4-(pyrrolidin-1-yl)cyclohexyl)ethyl)-2-((1-(4-methoxy-2,6-dimethylphenylsulfonyl)piperidin-2-yl)methoxy)-N-methylacetamide], `COc1cc(C)c(S(=O)(=O)N2CCCCC2COCC(=O)N(C)CCC2CCC(Cc3ccccc3)(N(C)C)CC2)c(C)c1` (stereo not shown) [Compound 84, N-(2-(4-benzyl-4-(dimethylamino)cyclohexyl)ethyl)-2-((1-(4-methoxy-2,6-dimethylphenylsulfonyl)piperidin-2-yl)methoxy)-N-methylacetamide] is higher in “μ opioid receptor [1 μM] % inhibition” value: 41% for the first, 61% for the second.

Compared with `CN1CCN(C2(c3ccccc3)CCN(C(=O)COCC3CCc4ccccc4N3S(=O)(=O)c3ccc(Cl)c(Cl)c3)CC2)CC1` (stereo not shown) [Compound 115, 2-((1-(3,4-dichlorophenylsulfonyl)-1,2,3,4-tetrahydroquinolin-2-yl)methoxy)-1-(4-(4-methylpiperazin-1-yl)-4-phenylpiperidin-1-yl)ethanone], `CN(C)C1(CCc2ccccc2)CCC(NC(=O)CC2c3ccccc3CCN2S(=O)(=O)c2ccc(Cl)c(Cl)c2)CC1` (stereo not shown) [Compound 1, 2-(2-(3,4-dichlorophenylsulfonyl)-1,2,3,4-tetrahydroisoquinolin-1-yl)-N-(4-(dimethylamino)-4-phenethylcyclohexyl)acetamide] is higher in “μ opioid receptor [1 μM] % inhibition” value: 9% for the first, 42% for the second.

Going from `CN(CCCC1CCC(CCc2ccccc2)(N2CCCC2)CC1)C(=O)CC1CCCCN1S(=O)(=O)c1cccc(C(F)(F)F)c1` (stereo not shown) [Compound 134, N-methyl-N-(3-(4-phenethyl-4-(pyrrolidin-1-yl)cyclohexyl)propyl)-2-(1-(3-(trifluoromethyl)phenylsulfonyl)piperidin-2-yl)acetamide] to `COc1cc(C)c(S(=O)(=O)N2CCCCC2COCC(=O)NC2CCC(c3ccccc3)(N3CCCC3)CC2)c(C)c1` (stereo not shown) [Compound 147, 2-((1-(4-methoxy-2,6-dimethylphenylsulfonyl)piperidin-2-yl)methoxy)-N-(4-phenyl-4-(pyrrolidin-1-yl)cyclohexyl)acetamide], the “μ opioid receptor [1 μM] % inhibition” value rises from 2% to 93%.

Compared with `COc1cc(C)c(S(=O)(=O)N(C)CCOCC(=O)N2CCC(c3ccncc3)(N(C)C)CC2)c(C)c1` [Compound 206, N-(2-(2-(4-(dimethylamino)-4-(pyridin-4-yl)piperidin-1-yl)-2-oxoethoxy)ethyl)-4-methoxy-N,2,6-trimethylbenzenesulfonamide], `COc1cc(C)c(S(=O)(=O)N2CCC(OCC(=O)NCC3CCC(c4ccccc4)(N4CCOCC4)CC3)C2)c(C)c1` (stereo not shown) [Compound 173, 2-(1-(4-methoxy-2,6-dimethylphenylsulfonyl)pyrrolidin-3-yloxy)-N-((4-morpholino-4-phenylcyclohexyl)methyl)acetamide] is higher in “μ opioid receptor [1 μM] % inhibition” value: 4% for the first, 26% for the second.

Compared with `CN(CC1CCC(c2ccccc2)(N2CCCC2)CC1)C(=O)CC(NS(=O)(=O)c1ccc2ccccc2c1)c1ccccc1` (stereo not shown) [Compound 92, N-methyl-3-(naphthalene-2-sulfonamido)-3-phenyl-N-((4-phenyl-4-(pyrrolidin-1-yl)cyclohexyl)methyl)propanamide], `COc1cc(C)c(S(=O)(=O)N2CCCCC2COCC(=O)NCC2CCC(c3ccccc3)(N3CCOCC3)CC2)c(C)c1` (stereo not shown) [Compound 157, 2-((1-(4-methoxy-2,6-dimethylphenylsulfonyl)piperidin-2-yl)methoxy)-N-((4-morpholino-4-phenylcyclohexyl)methyl)acetamide] is lower in “μ opioid receptor [1 μM] % inhibition” value: 83% for the first, 36% for the second.
